Values of other authors as cited in patent publication US10736883B2, “Triazole furan compounds as agonists of the APJ receptor” (AMGEN INC., priority 2016, dated 2020).

Amino acid sequences for entries named in this document (tags omitted). A change or cut given only in a name is not applied to a line headed by its entry.
UniProt P35414: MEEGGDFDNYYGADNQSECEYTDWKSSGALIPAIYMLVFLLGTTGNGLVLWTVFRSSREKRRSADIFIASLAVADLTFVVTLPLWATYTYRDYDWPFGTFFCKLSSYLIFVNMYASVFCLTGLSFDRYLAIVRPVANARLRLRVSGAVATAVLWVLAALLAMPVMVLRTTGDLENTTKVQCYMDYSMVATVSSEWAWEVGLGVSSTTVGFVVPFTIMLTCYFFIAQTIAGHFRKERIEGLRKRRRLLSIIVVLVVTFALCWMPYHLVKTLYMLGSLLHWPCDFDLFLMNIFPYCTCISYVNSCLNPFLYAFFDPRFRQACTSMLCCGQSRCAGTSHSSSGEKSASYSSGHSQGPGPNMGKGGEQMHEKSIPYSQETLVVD

Tests used:
APJ receptor [1] = target: T1, APJ receptor (Homo sapiens (Human), UniProt P35414); settings: apelin-36, apelin-17 and apelin-13 compared; cited from earlier work
APJ receptor [2] = target: T1, APJ receptor; settings: fold higher than apelin-36; cited from earlier work

Apelin-13
in vitro activity (relative potency) (APJ receptor [1]): approximately equipotent
in vitro affinity to the APJ receptor relative to apelin-36 (APJ receptor [2]): ~3.5 fold
